The results in this text go back to patent US6306876A, “4-[aryl(8-azabicyclo[3.2.1]octan-3-yl)]aminobenzoic acid derivatives” (priority 2000, dated 2001).

Amino acid sequences for entries named in this document (tags omitted).
UniProt P33533, whole entry: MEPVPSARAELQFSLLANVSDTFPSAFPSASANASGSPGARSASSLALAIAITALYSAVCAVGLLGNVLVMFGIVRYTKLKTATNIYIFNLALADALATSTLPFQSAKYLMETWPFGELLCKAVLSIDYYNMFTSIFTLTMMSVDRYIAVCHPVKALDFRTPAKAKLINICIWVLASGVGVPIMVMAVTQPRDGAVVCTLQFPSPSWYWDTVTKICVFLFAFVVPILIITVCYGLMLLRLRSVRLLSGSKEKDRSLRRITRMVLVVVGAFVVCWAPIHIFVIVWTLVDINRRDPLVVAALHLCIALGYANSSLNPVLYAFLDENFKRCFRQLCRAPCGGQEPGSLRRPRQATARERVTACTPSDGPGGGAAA

One experiment deals with delta-opioid receptor (Rattus norvegicus, UniProt P33533). The experiment in a line: Rat Brain Delta-Opioid Receptor Binding Assay. Further details: species or system rat (Wistar). Particulars: read-out: Delta K; rat forebrain homogenate, [3H]DPDPE, 25° C., pH 7.4.
Consider `CCN(CC)C(=O)c1ccc(N(c2cccc(OC)c2)[C@H]2C[C@H]3CC[C@@H](C2)N3C)cc1`, for which the Ki is 20.6 nM.

In the case of `CCN(CC)C(=O)c1ccc(N(c2ccccc2)[C@H]2C[C@H]3CC[C@@H](C2)N3C)cc1`, the Ki came to 6.59 nM.

Turning to `CCN(CC)C(=O)c1ccc(N(c2ccccc2)[C@H]2C[C@H]3CC[C@@H](C2)N3)cc1`, the Ki amounted to 0.36 nM.

Regarding `CCCN1[C@@H]2CC[C@H]1C[C@@H](N(c1ccccc1)c1ccc(C(=O)N(CC)CC)cc1)C2`, the Ki came out at 3 nM.

With `CCN(CC)C(=O)c1ccc(N(c2ccccc2)[C@H]2C[C@H]3CC[C@@H](C2)N3CCc2ccccc2)cc1`, the Ki was found to be 8 nM.

With `CCCN(CCC)C(=O)c1ccc(N(c2ccccc2)[C@@H]2C[C@H]3CC[C@@H](C2)N3C)cc1`, the Ki was 131 nM.

Tested on in another experiment: not listed separately
The experiment in a line: Mouse Acetylcholine Bromide-induced Abdominal Constriction Assay. Particulars: dose about 30 μmole/Kg p.o.; 30 min before 5.5 mg/kg i.p. acetylcholine bromide; 10 min observation. The procedure:
Mouse Acetylcholine Bromide-induced Abdominal Constriction Assay
The mouse acetylcholine-induced abdominal constriction assay, as described by Collier et al. in Brit. J. Pharmacol. Chem. Ther., 32: 295-310, 1968 with minor modifications, was used to assess analgesic potency of the compounds of Formula (I). The test drugs or appropriate vehicles were administered orally (p.o.) and 30 min later the animal received an intraperitoneal (i.p.) injection of 5.5 mg/kg acetylcholine bromide (Matheson, Coleman and Bell, East Rutherford, N.J.). The mice were then placed in groups of three into glass bell jars and observed for a ten min observation period for the occurrence of an abdominal constriction response (defined as a wave of constriction and elongation passing caudally along the abdominal wall, accompanied by a twisting of the trunk and followed by extension of the hind limbs).
As shown in Table 2 for the compounds of the present invention, the percent inhibition of this response to a nociceptive stimulus (equated to % analgesia) was calculated as follows: [formula]
In the case of `CCCN1[C@@H]2CC[C@H]1C[C@@H](N(c1ccccc1)c1ccc(C(=O)N(CC)CC)cc1)C2`, the “percent inhibition of abdominal constriction response (% analgesia)” value was determined as 60%.
